These are literature values, as cited in US7179597B2, “Genetic diagnosis for QT prolongation related adverse drug reactions” (Georgetown University, priority 2000, dated 2007).

For this data set the following is noted: Table 2; drug labeling; cited from earlier work.

Regarding Octreotide, the QT entry is recorded as “Yes”.
